{"source": "patent US20130190200A1", "about": "“SNP FOR PREDICTING THE SENSITIVITY TO ANTICANCER TARGETED THERAPEUTIC FORMULATION” (Korea Research Institute of Bioscience and Biotechnology, priority 2010, published 2013)", "key": {"[1]": {"system": "recurrent and metastatic colorectal cancer patients", "experiment": "Clinical association analysis related to survival on subjects treated with anticancer targeted drugs", "format": "in vivo, human", "description": "(§1) Clinical association analysis was performed on 69 subjects treated with bevacizumab and 67 subjects treated with cetuximab, whose progress of treatment with the corresponding anticancer drugs were confirmed, to investigate the clinical association. The prediction of clinical outcomes of the corresponding patients was based on the NCCN surveillance guidelines (www.nccn.org), and the determination of chemosensitivity to anticancer drugs were based on the RECIST criteria (Therasse et al., J Natl Cancer Inst 2000; 92:205-16). The observation period for the corresponding patients was an average of 13 months (in a range of 1 to 39 month), which was considered as a sufficient period for the determination of the results when considering that these drugs were administered to recurrent and metastatic cancer patients.\nAssociation analysis was performed on the SNP genotypes sensitive to the individual anticancer drugs obtained in steps (1) and (2) in colorectal cancer patients whose treatment with the corresponding drugs was terminated. First, the association analysis was performed on the candidate SNP genotypes sensitive to the respective drugs in 69 patients treated with bevacizumab and 67 patients treated with cetuximab, including 98 recurrent and metastatic cancer patients with crossover treatment."}, "[2]": {"system": "metastatic cancer patients", "experiment": "Clinical association analysis of drug response (RECIST criteria) on subjects treated with anticancer targeted drugs", "format": "in vivo, human", "conditions": "homozygous reference alleles of DFNB31 rs2274159 and LIFR rs3729740; P=0.023, 0.049", "description": "as §1"}}, "data": [{"substance": "cetuximab", "values": [{"measurement": "sensitivity and survival, in words (FIG. 3)", "setting": "[1]; homozygous reference alleles of ISX rs361863 vs homozygous or heterozygous substitution alleles", "result": "greater sensitivity and longer progression-free survival"}, {"measurement": "mean progression-free survival (PFS)", "setting": "[1]; patients carrying homozygous reference alleles of ISX rs361863, P=0.046 vs substitution alleles", "result": "8.5±1.2", "unit": "months"}, {"measurement": "mean progression-free survival (PFS)", "setting": "[1]; patients with homozygous or heterozygous substitution alleles of ISX rs361863, P=0.046", "result": "4.4±0.5", "unit": "months"}, {"measurement": "objective response rate and disease-control response rate, in words", "setting": "[2]", "result": "significantly high objective response rate (partial disease+complete response) and disease-control response rate"}]}]}
